Experimental data from patent US10703778B2, “Cyclic peptide, affinity chromatography support, labeled antibody, antibody drug conjugate, and pharmaceutical preparation” (FUJIFILM Corporation, priority 2015, dated 2020).

Experiment: Evaluation of plasma stability (residual rate in human plasma, mass spectrometry)
Format: in vitro ADME
Conditions: 20 minutes at room temperature, 0-minute sample = 100%
Method: The stability of the cyclic peptide 5 manufactured in Example 5 in human plasma (manufactured by ProMedDX) was evaluated.
Each of the peptides was prepared as a 5 μM aqueous solution, and 2 μL of each of the aqueous solutions was added to 20 μL of the human plasma and left to stand for 20 minutes at room temperature. After 20 minutes, 100 μL of methanol (manufactured by Wako Pure Chemical Industries, Ltd.) was added thereto such that the reaction stopped. After being stirred, the solution was subjected to centrifugation, and the supernatant was collected and named 20-minute sample. Meanwhile, 100 μL of methanol was added to 20 μL of the human plasma, 2 μL of the aqueous peptide solution was added thereto, the solution was stirred and subjected to centrifugation, and the supernatant was collected. The collected supernatant was named 0-minute sample.
Each of the samples was quantified using a mass spectrometer TRIPLE QUAD 5500 (manufactured by AB Sciex Pte. Ltd.). By regarding the quantified value of the 0-minute sample as 100%, the quantified value of the 20-minute sample was calculated as a residual rate.

## DX^aAYHRGELVWX^bTKK [Cyclic peptide 91]
  rate of change in the binding amount (residual rate) in the human plasma: ≤ 50%
